Source: patent US7334580B2, “Methods, devices and formulations for targeted endobronchial therapy” (priority 2003, dated 2008)

Assay: Bench model with proximal airways tube, aerosol catheter in ET tube, continuous administration
Settings: aerosol delivered to distal airways, cascade impactor, MEAN ± SEM
Protocol: The endotracheal tube 1006 (or tracheostomy tube), instead of being in the patient 10, is attached to 100 ml tube 4000, which models the proximal airways (i.e., trachea 70 and mainstream bronchi 210); the 100 ml tube 4000 is attached to the inhaled mass filter 1040. In other words (describing the arrangement moving in the direction of the patient 10), the Y piece 1003 is connected to the ET tube 1006, which is connected to the 100 ml tube 4000, which is attached to the inhaled mass filter 1040 (the filter measures aerosol that will pass out of the proximal airways and enter the distal lung).
In a first experiment, the bench model of FIG. 16B was tested with an aerosol catheter 103 (the Trudell catheter, Trudell Medical International); a standard Y-piece 1003 was used (without any nebulizer). […] The inhaled mass was measured in two parts: the proximal airways (100 ml tube 4000) and distal airways (filter 1040 distal to the 100 ml tube 4000). The Mass Median Aerodynamic Diameter (MMAD) was measured in aerosol delivered to distal airways using a cascade impactor. The test was performed with two different ventilators with the humidity feature active and off. Administration of the aerosol was continuous (not breath actuated). The data reveal that administration of aerosol in this manner is relatively insensitive to humidity.

SMILES: CC(C)(C)NCC(O)c1ccc(O)c(CO)c1 (stereo not shown) [albuterol]
- MMAD (Drager, humidity off): 1.23 ± 0.1
- MMAD (Drager, humidity on): 1.30 ± 0.2
- MMAD (T-Bird, humidity off): 1.12 ± 0.2
- MMAD (T-Bird, humidity on): 1.72 ± 0.2
